According to patent publication US6809209B2, “Nitrogen-containing group-13 anionic compounds for olefin polymerization” (ExxonMobil Chemical Patents Inc., priority 2000, dated 2004):

Assay: Solubility test in pentane
Assay type: physicochemical
Details: stirred 30 minutes, filtered, filtrate evaporated
Procedure: Procedure: To 0.023 g of the invention compound [C6H5NBu2(H)][4-(C6H5 {Et3Si})—C6F4]4B was added 0.735 grams of pentane. The mixture was stirred for 30 minutes. The resulting mixture was filtered to remove undissolved solids. An portion of the filtrate weighing 0.423 grams was evaporated. After solvent removal the vessel contents, the borate salt, weighed 0.011 grams (2.6 wt %). Under analogous experimental conditions with another invention compound [C6H5NMe2(H)][4-(C6F5N{Me3Si})—C6F4]4B, no visible amount of activator remained from the filtrate after evaporation.

Substance	solubility in pentane (borate salt recovered from filtrate) [wt %]
N,N-dibutyl anilinium tetrakis(4-(N-pentafluoro-N-triethylsilylamino)tetrafluorophenyl)borate [A^6]	2.6
N,N-dimethyl anilinium tetrakis (4-(N-pentafluorophenyl-N-trimethylsilylamino)tetrafluorophenyl) borate [A^2]	< 0.01
